Assay results as given in ChEMBL document CHEMBL5550170, “Discovery of novel benzimidazole derivatives as selective and reversible monoamine oxidase B inhibitors for Parkinson's disease treatment” (Eur J Med Chem, 2024).

Sequences of proteins named here, by UniProt entry; tags and fusion partners are left off.
UniProt P21397, whole entry: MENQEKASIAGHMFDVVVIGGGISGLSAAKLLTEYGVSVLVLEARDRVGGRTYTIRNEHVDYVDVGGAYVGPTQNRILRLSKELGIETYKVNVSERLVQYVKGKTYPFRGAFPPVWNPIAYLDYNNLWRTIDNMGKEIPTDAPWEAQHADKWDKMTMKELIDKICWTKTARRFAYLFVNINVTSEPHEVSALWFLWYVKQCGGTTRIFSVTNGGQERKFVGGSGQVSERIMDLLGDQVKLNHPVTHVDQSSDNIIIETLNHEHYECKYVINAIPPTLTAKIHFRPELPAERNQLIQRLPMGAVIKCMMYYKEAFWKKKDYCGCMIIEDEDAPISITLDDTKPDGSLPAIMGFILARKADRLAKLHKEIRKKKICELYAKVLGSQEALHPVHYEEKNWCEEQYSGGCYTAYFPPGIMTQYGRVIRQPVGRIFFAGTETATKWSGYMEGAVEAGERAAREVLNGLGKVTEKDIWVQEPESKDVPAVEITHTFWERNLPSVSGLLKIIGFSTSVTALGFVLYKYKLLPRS

Legend:
in vivo [1] = settings: Sprague-Dawley, rat, po, 15 mg/kg
[2] = target: Amine oxidase [flavin-containing] A (Homo sapiens, UniProt P21397)
in vivo [3] = settings: Sprague-Dawley, rat, po, 15 mg/kg; remark: listed apart in the source
in vivo [4] = settings: Sprague-Dawley, rat, brain, iv, 17.5 mg/kg
in vivo [5] = settings: Sprague-Dawley, rat, iv, 5 mg/kg
in vivo [6] = settings: Sprague-Dawley, rat, not told, iv
in vitro = settings: rat, PC12 cells
in vivo [7] = settings: Sprague-Dawley, rat, brain, iv, 4 mg/kg

## NC(=O)Cc1nc2cc(OCc3ccc(F)cc3)ccc2[nH]1
In vivo [1]
  bioavailability at 24 h: > 100%
[2]
  IC50: 26 µM
In vivo [3]
  Cmax at 24 h: 13600 ng/mL
In vivo [4]
  concentration at 4 h: 738 ng/g
In vivo [5]
  Cmax at 24 h: 4940 ng/mL
In vivo [6]
  Papp: 5.26 ×10⁻⁶ cm/s
In vitro
  viability at 24 h, 50 µM: 99.4%
In vivo [7]
  concentration at 0.75 h: 323 ng/g
